Results taken from patent US20080085244A1, “Methods for identifying and using amyloid-inhibitory compounds” (Wyeth, priority 1999, published 2008).

Tests used:
brain Aβ (Aβ40, Aβ42) = experiment: Brain Aβ40, Aβ42 and total Aβ levels by ELISA of DEA brain extracts of ovariectomized guinea pigs; type: in vivo, guinea pig
Protocol: Maintenance of animals and treatment. Ovariectomized (ovx) and intact female guinea pigs were purchased from Hilltop Laboratories (Scottsdale, Pa.); ovx animals were 8 weeks old at the time of surgery. […] Throughout the study, the animals were fed ad libitum in a controlled lighting environment (12 h/12 h light/dark cycles). After the surgery, the ovx guinea pigs were put on a casein-based, soy-free diet (Purina, Richmond, Ind.) to exclude the presence of phytosteroids in the diet. The intact animals also began receiving soy-free food at approximately 8 weeks of age. […] Prior to the beginning of the treatment, all animals were weighed. The average daily food intake for each animal using this particular diet was determined in a preliminary experiment.
Tissue collection. At the end of the treatment, all animals were sacrificed by decapitation. […] The brains were immediately removed, and the cerebellum was dissected away from each brain. The rest of the brain was divided into hemispheres which were snap-frozen and stored at −80° C.
Preparation of Brain Extracts. Soluble Proteins from the Brains were Recovered using a modification of an established protocol (Savage et al., J. Neurosci., 1998, 18:1743-52). Briefly, the hemispheres were homogenized in 0.2% diethylamine (DEA)/50 mM NaCl at 1:10 w/v ratio, with 5-6 strokes of a Dounce homogenizer. The DEA homogenate was centrifuged for 90 min at 100,000 g. The DEA supernatants were neutralized to pH about 8.0 by addition of 1/10th vol. of 0.5M Tris-Cl pH 6.8, then aliquoted and snap-frozen. The pellets of the DEA extracts were solubilized in 2% SDS/PBS containing a cocktail of protease inhibitors (“Complete”, Boehringer Mannheim, Germany), sonicated and boiled. The protein concentrations of the DEA and SDS supernatants were determined using the BCA reagent assay kit (Pierce, Rockford, Ill.).
Detection of sAPPα, flAPP, Aβ40 and Aβ42. The amino acid sequence of APP from guinea pigs is 97% identical to the human APP homologue and the Aβ region is 100% identical to human Aβ (Beck et al., Biochim. Biophys. Acta, 1997, 1351:17-21), thus enabling use of well characterized Aβ antibodies to study the effects of estrogen on APP metabolism.
The levels of Aβ40 and Aβ42 were determined by Aβ40- and Aβ42-specific ELISA assays (Mehta et al, Neurosci. Lett., 1998, 241:13-16). For each animal, the levels of Aβ40, Aβ42, and total Aβ were standardized to brain tissue weight and expressed as ng (Aβ)/g (brain tissue, wet weight). In all experiments, animals were coded prior to tissue collection, and the treatment status of each animal was unknown to the investigators at the time of the assays.

sAPPα = experiment: Brain sAPPα levels by quantitative Western blotting (6E10), standardized to flAPP; type: in vivo, guinea pig
Protocol: Soluble Proteins from the Brains were Recovered using a modification of an established protocol (Savage et al., J. […] The DEA homogenate was centrifuged for 90 min at 100,000 g. […] The protein concentrations of the DEA and SDS supernatants were determined using the BCA reagent assay kit (Pierce, Rockford, Ill.). Soluble APPα (sAPPα) was detected by Western blotting of proteins from the DEA extracts using the monoclonal antibody 6E10 (Senetek, St. Louis, Mo.), which recognizes […]β region. The DEA extraction recovers soluble and not membrane embedded proteins, precluding the interference of flAPP with the detection of sAPPα (Savage et al., supra). […] Visualization was performed using enhanced chemiluminescence. For quantitation, multiple exposures of the immunoblots were scanned using the ScanAnalysis software. […] Full-length APP levels were determined by immunoblotting of SDS extracts (50 μg/lane) using antibody 369 (which recognizes epitopes in the cytoplasmic tail of APP, residues 645-695; Buxbaum et al., Proc. Natl. Acad. Sci. […] Again, the samples were analyzed in triplicate, and densitometric analysis of multiple exposures of the immunoblots was performed. […] The levels of Aβ40, Aβ42, and sAPPα in brain tissue were determined using Aβ40- and Aβ42-specific ELISA assays and quantitative immunoblotting, respectively, as described in Methods.

[1] = ovx + low-dose E2, 1 mg E2/kg BW/day per os, 10 days

Which results are given for `C[C@]12CC[C@@H]3c4ccc(O)cc4CC[C@H]3[C@@H]1CC[C@@H]2O` [E2, 17β-estradiol]?
effect on Aβ42/Aβ40 ratio on average (brain Aβ (Aβ40, Aβ42); 10-day E2 treatment, both low and high-dose): did not alter; Aβ42/Aβ40 ratio median (brain Aβ (Aβ40, Aβ42); ovx + high-dose E2, 5 mg E2/kg BW/day per os, 10 days): 0.140; Aβ42/Aβ40 ratio mean +/− SEM (brain Aβ (Aβ40, Aβ42); ovx + high-dose E2, 5 mg E2/kg BW/day per os, 10 days, ovx mean 0.150): 0.141 and 0.141 +/− 0.013; Aβ42/Aβ40 ratio mean +/− SEM (brain Aβ (Aβ40, Aβ42); [1]): 0.141 +/− 0.01; Aβ42/Aβ40 ratio median (brain Aβ (Aβ40, Aβ42); [1]): 0.146; effect of high-dose E2 on Aβ species relative to low-dose E2 (brain Aβ (Aβ40, Aβ42); second experiment, 5 mg/kg BW/day, 10 days): did not cause any additional decrease; levels of sAPPα, ovx group versus ovx+E2 group (sAPPα; first experiment, 1 mg E2/kg BW/day per os, 10 days, p=0.5): indistinguishable; levels of sAPPα after E2 replacement (sAPPα; second experiment, ovx guinea pigs, low and high-dose E2): unaffected

Several values for one entry are separate records, joined by “and”; a condition that tells them apart may be missing. Equal values may be shown once.
